{
  "sequences": {"note": "Chains of the proteins cited; added tags and fusions are not shown. Lines headed by an entry give the natural chain unless they say otherwise; changes in a name come on top.", "UniProt Q9H9Q4": "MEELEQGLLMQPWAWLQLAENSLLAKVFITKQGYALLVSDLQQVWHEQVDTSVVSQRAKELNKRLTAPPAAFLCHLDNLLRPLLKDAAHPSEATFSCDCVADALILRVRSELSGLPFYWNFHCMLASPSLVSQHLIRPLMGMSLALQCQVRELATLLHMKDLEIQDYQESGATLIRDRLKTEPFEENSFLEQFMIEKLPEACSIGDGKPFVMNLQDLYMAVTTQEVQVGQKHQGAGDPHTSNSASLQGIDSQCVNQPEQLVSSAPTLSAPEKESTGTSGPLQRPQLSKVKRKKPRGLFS", "UniProt Q8IW19": "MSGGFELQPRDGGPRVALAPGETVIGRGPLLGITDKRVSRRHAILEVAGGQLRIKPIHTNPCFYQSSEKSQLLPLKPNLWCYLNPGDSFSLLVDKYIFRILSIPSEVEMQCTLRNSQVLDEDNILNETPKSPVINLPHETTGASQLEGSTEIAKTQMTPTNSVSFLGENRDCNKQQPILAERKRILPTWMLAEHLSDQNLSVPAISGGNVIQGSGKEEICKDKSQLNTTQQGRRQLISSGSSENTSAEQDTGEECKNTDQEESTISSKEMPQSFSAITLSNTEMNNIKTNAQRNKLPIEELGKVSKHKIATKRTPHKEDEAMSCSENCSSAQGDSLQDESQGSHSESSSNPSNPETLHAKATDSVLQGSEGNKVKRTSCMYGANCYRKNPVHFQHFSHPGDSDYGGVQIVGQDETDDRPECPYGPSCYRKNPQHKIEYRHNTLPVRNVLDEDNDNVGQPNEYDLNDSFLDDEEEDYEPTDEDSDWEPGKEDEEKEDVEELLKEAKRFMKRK"},
  "source": "paper PMC6234012",
  "about": "(Nature structural & molecular biology, 2018)",
  "key": {"[1]": {"molecular_target": "KuFL I112R (Ku80 mutant on APLF site) (Homo sapiens, UniProt P12956+P13010, I112R)", "assay": "ITC, ligand into KuFL I112R", "format": "binding", "conditions": "25°C, pH 8.0"}, "[2]": {"system": "Ku complexed with a 50bp DNA", "assay": "EMSA / gel shift with XLF and Ku-50bp DNA, peptide competition", "format": "binding"}, "KuFL+pAPLF": {"molecular_target": "KuFL+pAPLF (Homo sapiens, UniProt P12956+P13010)", "assay": "ITC competition, ligand into KuFL saturated with pAPLF", "format": "binding"}, "[3]": {"molecular_target": "T1, truncated Ku heterodimer Ku70(1–544)/Ku80(1–551), deleted for the C-terminal regions (UniProt P12956 1-544; P13010 1-551)", "assay": "ITC"}, "[4]": {"molecular_target": "T1, truncated Ku heterodimer …", "assay": "crystal structure"}},
  "data": [
    {"molecule": "CC[C@H](C)[C@H](NC(=O)[C@H](CCCNC(=N)N)NC(=O)[C@H](CCCCN)NC(=O)[C@H](CCCNC(=N)N)NC(=O)[C@H](CCC(=O)O)NC(=O)[C@H](C)NC(=O)[C@H](CC(C)C)NC(=O)[C@@H](NC(=O)[C@@H]1CCCN1C(=O)[C@H](CCC(N)=O)NC(=O)[C@H](CCC(N)=O)NC(=O)[C@@H](N)CCCCN)[C@@H](C)CC)C(=O)N[C@@H](CC(C)C)C(=O)N1CCC[C@H]1C(=O)N[C@H](C(=O)N[C@@H](Cc1c[nH]c2ccccc12)C(=O)N[C@@H](CCSC)C(=O)N[C@@H](CC(C)C)C(=O)O)[C@@H](C)O", "note": "[pAPLF]", "values": [
      {"measurement": "Kd", "setting": "[1]", "result": "NI^(a)"},
      {"measurement": "Competition with XLF protein for Ku-DNA", "setting": "[2]; EMSA competition, XLF and Ku, 50bp DNA with 5' FAM, room temperature 1 hr", "result": "does not displace XLF"}
    ]},
    {"molecule": "CC(C)C[C@H](NC(=O)[C@H](CCC(N)=O)NC(=O)[C@@H]1CCCN1C(=O)[C@H](CCCNC(=N)N)NC(=O)[C@H](CCC(N)=O)NC(=O)[C@@H](N)CC(C)C)C(=O)N[C@@H](CO)C(=O)N[C@@H](CCCCN)C(=O)N[C@H](C(=O)N[C@@H](CCCCN)C(=O)N[C@@H](CCCNC(=N)N)C(=O)N[C@@H](CCCCN)C(=O)N[C@@H](CCCCN)C(=O)N1CCC[C@H]1C(=O)N[C@@H](CCCNC(=N)N)C(=O)NCC(=O)N[C@@H](Cc1c[nH]c2ccccc12)C(=O)N[C@@H](Cc1ccccc1)C(=O)N[C@@H](CO)C(=O)O)C(C)C", "note": "[pXLF(LW)]", "values": [
      {"measurement": "Interaction with Ku saturated with the A-KBM, in words", "setting": "KuFL+pAPLF", "result": "no longer interacts with Ku"}
    ]},
    {"molecule": "XLF: full length XLF protein; 10-His tagged in vitro, CFP-tagged or complemented in cells", "values": [
      {"measurement": "Interaction with Ku complexed with 50bp DNA", "setting": "[2]; EMSA, 25 nM oligonucleotide, 75 mM KCl, 10 mM Tris pH 7.5, room temperature 1 hr", "result": "in the μM range"}
    ]},
    {"molecule": "LQRPQLSKVKRKKPRGLFS (peptide, UniProt Q9H9Q4 281-299, looked up)", "note": "[X-KBM peptide of XLF (L281 to S299), 19mer]", "values": [
      {"measurement": "Kd", "setting": "[3]", "result": 2.2, "unit": "µM"},
      {"measurement": "dH", "setting": "[3]", "result": -3.1, "unit": "kcal/M"}
    ]},
    {"molecule": "SKVKRKKPRGLFS (peptide, UniProt Q9H9Q4 287-299, looked up)", "note": "[short X-KBM peptide of XLF (S287-S299), 13mer]", "values": [
      {"measurement": "binding result", "setting": "[4]", "result": "binds"}
    ]},
    {"molecule": "KQQPILAERKRILPTWML (peptide, UniProt Q8IW19 174-191, looked up)", "note": "[18-mer A-KBM peptide of APLF (aa 174–191)]", "values": [
      {"measurement": "Kd", "setting": "[3]", "result": "0.02 ± 0.002", "unit": "µM"},
      {"measurement": "dH", "setting": "[3]", "result": "-18.4 ± 0.7", "unit": "kcal/M"}
    ]}
  ]
}
